Source: US9656017B2, “Infusion delivery devices and methods” (priority 2014, dated 2017)

Legend:
[1] = 24-hour plasma profiles of endogenous insulin and amylin in healthy adults, basal/bolus AUC analysis; assay type: in vivo, human; details: for In Vivo AUC pM × 24 hr: endogenous, molar
From the text: This difference in bolus/basal ratios was quantified by estimating the AUCs of the basal and bolus components, which would reflect the 24-hour hormone exposures attributable to these components. FIG. 6 and FIG. 7 show this basal/bolus allocation for amylin and insulin when the lowest observed levels of endogenous hormone are used as the upper boundary of the basal area.
Comparing AUCs results in the discovery that there is a striking difference between hormones with respect to the importance of bolus exposure compared to basal exposure, as summarized in Table 1. Measured as a ratio of bolus-to-basal exposure, the insulin bolus component is about three times as important as that of amylin. Measured as percentages of total daily hormone exposures, the “pancreatic insulin pump” secretes about twice as much insulin during mealtime boluses compared to basal, whereas the “pancreatic amylin pump” is set to the reverse ratio. See the example in Table 1.
Note that these calculations are based upon the specific clinical study shown in FIG. 5, and so the quantities presented here are used to illustrate the difference between insulin and amylin plasma levels. In other words, amongst other things, we have discovered that insulin is primarily a mealtime bolus hormone, whereas amylin is primarily a background basal hormone.
It is noted with regard to Table 1 that both the plasma insulin and amylin were measured with immunometric assays that are normally highly specific but are subject to cross reactions with other analytes that contain both binding sites. […] Either this is background amylin expression which been reported in non-beta-cell tissues, or it is nonspecific background noise in the amylin assay. In either case the basal amylin level in the above figures should therefore be reduced by about 17%. The same adjustment should also be made for any background insulin plasma levels. However, the insulin data is not available, so for this discussion the unadjusted plasma amylin basal level of 9.3 pM will be used in this example.
The following calculations are presented as an example of how appropriate amylin agonist doses can be determined. This insulin-dependent dosing can be achieved by calculating two separate components of pramlintide dosing: (1) the weight ratio of the daily basal component of amylin-to-insulin; and (2) the weight ratio of the daily bolus component of amylin-to-insulin.

[2] = subcutaneous (SC) injections; cited from earlier work
[3] = plasma, healthy adults, based upon AUCs

In the case of Insulin, the “In Vivo AUC pM × 24 hr” value ([1]; basal component) is reported as 2045.34 pM × 24 hr, the “In Vivo AUC pM × 24 hr” value ([1]; bolus component) is reported as 3813.31 pM × 24 hr and the “Basal Level” value ([1]; plasma, healthy adults, endogenous hormone, based upon AUCs, unadjusted) is reported as 85.2 pM. For the same substance, the “Basal as % Total” value [1, 3] was 35%, the “Bolus/Basal Ratio” value [1, 3] was 1.9 and the Bioavailability [2] was 70%.
